Values of other authors, collected in US4668689A, “Glutarimide derivatives for treating oestrogen-dependent tumors” (National Research Development Corporation, priority 1984, dated 1987).

Tested on: aromatase
Settings: literature; cited from earlier work

For CCC1(c2ccncc2)CCC(=O)NC1=O (stereo not shown) [Pyridoglutethimide, 3-ethyl-3-(4-pyridyl)piperidine-2,6-dione], the inhibition of aromatase is listed as “inhibits aromatase”.
